Experimental data from patent US20260193272A1, “SELENIUM CONTAINING HETEROCYCLE COMPOUNDS AND USE THEREOF” (HELIOS HUAMING BIOPHARMA CO., LTD., priority 2022, published 2026).

Amino acid sequences for entries named in this document (tags omitted).
UniProt Q9UM07, whole entry: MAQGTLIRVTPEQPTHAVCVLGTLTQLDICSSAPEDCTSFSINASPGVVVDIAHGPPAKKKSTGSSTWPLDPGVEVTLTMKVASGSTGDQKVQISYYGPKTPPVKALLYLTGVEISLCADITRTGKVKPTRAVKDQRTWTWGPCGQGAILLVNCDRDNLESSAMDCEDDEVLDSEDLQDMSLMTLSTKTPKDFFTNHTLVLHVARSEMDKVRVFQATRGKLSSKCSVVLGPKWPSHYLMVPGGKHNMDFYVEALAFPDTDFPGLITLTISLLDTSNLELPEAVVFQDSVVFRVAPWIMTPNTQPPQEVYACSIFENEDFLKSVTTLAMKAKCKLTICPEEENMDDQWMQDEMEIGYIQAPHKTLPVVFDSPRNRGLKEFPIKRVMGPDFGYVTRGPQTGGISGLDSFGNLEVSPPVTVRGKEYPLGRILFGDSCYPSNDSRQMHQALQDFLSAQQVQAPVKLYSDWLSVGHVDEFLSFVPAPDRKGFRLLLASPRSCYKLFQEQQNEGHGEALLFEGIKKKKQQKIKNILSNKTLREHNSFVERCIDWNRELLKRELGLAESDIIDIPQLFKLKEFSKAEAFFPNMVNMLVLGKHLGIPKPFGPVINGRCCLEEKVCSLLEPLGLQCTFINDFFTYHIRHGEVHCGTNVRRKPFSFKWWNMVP

Molecular target: PAD4 enzyme (Homo sapiens, UniProt Q9UM07)
Assay: In-vitro measurement for enzymatic PAD4 citrullination inhibition activity (ammonia release)
Settings: read-out: IC50 of inhibition enzymatic activity of PAD4 (Colorimetric assays, Nature Chemical Biology, 2015, 11: 189-191)
Experimental: Citrullination was detected via ammonia release based on published methodology (Nature Chemical Biology, 2015, 11: 189-191).
PAD4 enzyme was diluted to 30 nM in Assay Buffer (100 mM HEPES, 50 mM NaCl, 2 mM DTT, 0.6 mg/ml BSA, pH 8) and added to wells containing various concentrations of compound or DMSO vehicle (0.8% final) in a high-volume black 96-well plate (Greiner). Following a 60-min preincubation at 27° C., the reaction was initiated by the addition of substrate (3 mM BAEE in 100 mM HEPES, 50 mM NaCl, […] CaCl2, 2 mM DTT, pH 8). The reaction was stopped after 90 min by the addition of stop/detection buffer containing 50 mM EDTA, 2.6 mM o-phthalaldehyde and 2.6 mM DTT. Assays were incubated at 27° C. for 120 min before measuring fluorescence (λex 410/λem 476) on an Envision plate reader (PerkinElmer). After which IC50 values were calculated using GraphPad Prism 8.0.

COc1cc(C(=O)N2C[C@H](N)CC[C@@H]2C)cc2nc(-c3cc4[se]c(C)nc4n3Cc3ccccc3)n(C)c12
IC50: 100 to 500 nM
